Tests used:
Assay type in all cases: functional, cell-based
[1] = molecular target: T1, Transient receptor potential cation channel subfamily V member 1 (Rattus norvegicus, UniProt O35433); assay: Antagonist activity at rat TRPV1 expressed in CHO cells assessed as blockade of capsaicin-induced receptor activation by [45Ca2+] uptake assay
[2] = molecular target: T1, Transient receptor potential cation channel subfamily V member 1; assay: Antagonist activity at rat TRPV1 expressed in CHO cells assessed as blockade of acid-induced receptor activation by [45Ca2+] uptake assay
[3] = molecular target: T1, Transient receptor potential cation channel subfamily V member 1; assay: Antagonist activity at rat TRPV1 expressed in HEK293 cells assessed as blockade of acid-induced receptor activation by FLIPR assay
[4] = molecular target: T1, Transient receptor potential cation channel subfamily V member 1; assay: Antagonist activity at rat TRPV1 expressed in HEK293 cells assessed as blockade of capsaicin-induced receptor activation by FLIPR assay

Sequences of proteins named here, by UniProt entry; tags and fusion partners are left off.
UniProt O35433, whole entry: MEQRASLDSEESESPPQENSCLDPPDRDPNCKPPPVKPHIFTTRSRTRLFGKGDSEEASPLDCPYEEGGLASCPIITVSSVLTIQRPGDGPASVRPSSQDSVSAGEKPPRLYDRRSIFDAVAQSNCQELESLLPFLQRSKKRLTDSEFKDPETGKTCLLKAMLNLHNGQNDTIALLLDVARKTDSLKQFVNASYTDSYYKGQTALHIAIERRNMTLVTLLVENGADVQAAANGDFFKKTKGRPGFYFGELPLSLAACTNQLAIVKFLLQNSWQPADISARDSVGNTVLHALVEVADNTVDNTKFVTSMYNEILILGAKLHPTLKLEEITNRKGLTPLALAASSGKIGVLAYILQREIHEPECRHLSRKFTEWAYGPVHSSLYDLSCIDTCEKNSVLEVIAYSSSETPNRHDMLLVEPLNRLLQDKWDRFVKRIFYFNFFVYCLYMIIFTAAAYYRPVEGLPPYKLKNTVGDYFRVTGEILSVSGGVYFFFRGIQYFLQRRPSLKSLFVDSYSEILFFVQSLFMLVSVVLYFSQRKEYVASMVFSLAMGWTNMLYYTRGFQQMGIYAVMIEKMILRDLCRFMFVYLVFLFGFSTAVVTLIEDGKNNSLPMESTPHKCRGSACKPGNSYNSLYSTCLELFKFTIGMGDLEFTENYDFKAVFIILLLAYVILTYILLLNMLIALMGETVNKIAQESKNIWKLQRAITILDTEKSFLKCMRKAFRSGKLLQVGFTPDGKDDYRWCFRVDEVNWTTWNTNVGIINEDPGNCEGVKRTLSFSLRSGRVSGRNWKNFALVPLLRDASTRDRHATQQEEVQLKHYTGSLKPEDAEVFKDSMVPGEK

SMILES | IC50 [1] | IC50 [2] | IC50 [3] | IC50 [4]
CC(C)(C)c1ccc(/C=C/C(=O)Nc2ccc3c(c2)OCCO3)cc1 | 86 nM | 294 nM | – | –
CC(C)(C)c1ccc(NC(=O)N2CCN(c3ncccc3Cl)CC2)cc1 | – | 0.7 nM | 0.6 nM | 1.9 nM

From ChEMBL document CHEMBL1141455, “The potential of transient receptor potential vanilloid type 1 channel modulators for the treatment of pain” (J Med Chem, 2007)
